{
  "source": "paper PMC7321251",
  "about": "“Verification of the Necessity of the Tolyl Group of PF-543 for Sphingosine Kinase 1 Inhibitory Activity” (Molecules, 2020)",
  "assay_type_in_all_cases": "in vitro ADME",
  "key": {"[1]": {"test": "Liver microsomal stability, human (HLM)", "details": "human liver microsomes, NADPH", "experimental": "(§1) Microsomal incubations were conducted in triplicate in 0.1 M potassium phosphate buffer (pH 7.4) in a clean 1.5 mL eppendorf tube. […] HLM was added and the mixture was pre-incubated at 37 °C in a shaking incubator at approximately 350 rpm for 5 min under Thermo mixer (Eppendorf., Hamburg, Germany). Reactions were initiated by the addition of 1 mM NADPH and were then quenched by adding 40 µL of ice-cold acetonitrile containing 10 µM chlorproamide (CPP) as an internal standard at 0, 30 min. The incubation mixtures were then centrifuged at 15,000× g for 5 min at 4 °C. A 2 µL aliquot of the supernatant was directly injected into the LC-MS/MS system. The LC-MS/MS system consisted of the Nexera XR HPLC system (Shimadzu Co., Kyoto, Japan) coupled to the TSQ Vantage triple quadrupole mass spectrometer equipped with Xcalibur version 1.1.1 (Thermo Fisher Scientific Inc., Waltham, MA, USA)."}, "[2]": {"test": "Liver microsomal stability, dog (DLM)", "details": "dog liver microsomes, NADPH", "experimental": "[Worded in the source for another species; this species is reported under the same test.] as §1"}, "[3]": {"test": "Liver microsomal stability, rat (RLM)", "details": "rat liver microsomes, NADPH", "experimental": "[Worded in the source for another species; this species is reported under the same test.] as §1"}, "[4]": {"test": "Liver microsomal stability, mouse (MLM)", "details": "mouse liver microsomes, NADPH", "experimental": "[Worded in the source for another species; this species is reported under the same test.] as §1"}},
  "note": "“And” between values parts separate entries of the source, which are not always exact repeats. Equal values may be shown once.",
  "data": [
    {"substance": "(R)-(1-(4-((3-methyl-5-(phenylsulfonyl)phenoxy)methyl)benzyl)pyrrolidin-2-yl)methanol [PF-543]", "values": [
      {"measurement": "HLM microsomal stability (% remaining during 30 min)", "setting": "[1]", "result": "< 10 % remaining and 6.4 % remaining"},
      {"measurement": "DLM microsomal stability (% remaining during 30 min)", "setting": "[2]", "result": "< 10 % remaining and 7.3 % remaining"},
      {"measurement": "RLM microsomal stability (% remaining during 30 min)", "setting": "[3]", "result": "< 10 % remaining and 7.8 % remaining"},
      {"measurement": "MLM microsomal stability (% remaining during 30 min)", "setting": "[4]", "result": "< 10 % remaining and 9.4 % remaining"}
    ]}
  ]
}
